Laboratory results as given in patent US20110182926A1, “[…]” (priority 2008, published 2011).

Assays:
HLA-A*0201 [1] = target: T1, HLA-A*0201 (Homo sapiens, UniProt P04439, D140Y/D185E/D98H/E176V/E277Q/G131W/G231S/I119V/I121R/I166T/I218V/L300P/L318F/N151K/N90K/P208A/P217A/Q86G/Q94H/R138H/R169H/T345S); assay: In vitro cellular binding assay of CEA peptides on TAP-deficient T2 cells (FACS); conditions: 50 μM peptide, 18 hours at 37° C., FIG. 3
Experimental: To determine the binding ability of EI Suite-selected wild type peptides and analogs, an in vitro cellular binding assay was performed using the TAP-deficient cell line T2. T2 cells are HLA-A*0201 positive, MHC class II negative and TAP deficient, meaning that they lack a functional transporter associated with antigen presentation, so that they accumulate empty unstable class I molecules.
T2 cells were incubated with 50 μM peptide in serum-free RPMI 1640 supplemented with 5 μg/mL human β2m (Fluka) for 18 hours at 37° C. HLA-A*0201 expression was then measured by flow cytometry using the anti-HLA-A2.1 monoclonal antibody (mAb) BB7.2 followed by incubation with fluorescein isothiocyanate (FITC)-conjugated F(ab′)2 goat antimouse Ig (Biosource). The results are expressed as fluorescence index (FI) defined as a ratio (median channel of fluorescence) between the sample and a control without any peptide. An increase over the control of at least […] (FI>2) was arbitrarily chosen as the cutoff point.
The binding assay consisted of the exogenous addition of peptides and β2 microglobulin protein: peptide binding up-regulates surface HLA expression and HLA-A2 molecules on the surface are measured using FACS by means of an antibody capable of recognizing the peptide-MHC complex (Kuzushima et al. Blood; 98:1872-81 (2001); Passoni et al. Blood 99:2100-06 (2002)).

HLA-A*0201 [2] = target: T1, HLA-A*0201; assay: HLA-A*0201/peptide complex stability on T2 cells over time (FACS); type: binding; conditions: 50 μM peptide, 0-8 hours, FIG. 4
Experimental: To assess the HLA-A*0201/peptide complex stability, T2 cells (10^6/mL) were incubated overnight with 50 μM of each peptide in serum-free RPMI 1640 supplemented with 100 ng/mL human β2m at 37° C. Cells were then washed 4 times to remove free peptides, incubated for 1 hour with 10 ng/mL Brefeldin A (Sigma-Aldrich) to block cell surface expression of newly synthesized HLA-A*0201 molecules, washed, and incubated at 37° C. for 0, 2, 4, 6, or 8 hours. Subsequently, cells were stained with anti-HLA-A2.1 mAb BB7.2. For each time point, peptide-induced HLA-A*0201 expression was calculated as mean fluorescence value of peptide incubated T2 cells/mean fluorescence value T2 cells in the absence of the peptide. Dissociation complex 50 (DC50) was defined as the time required for the loss of 50% of the HLA-A*0201/peptide complexes stabilized at t=0.
Binding stability of the peptide-MHC complex was also evaluated over time. The CAP-1 peptide was used as positive control.

- binding to HLA-A*0201 compared to wild-type counterpart (HLA-A*0201 [1]): marked increase of binding
- stability of peptide-MHC complex compared to wild-type counterpart (HLA-A*0201 [2]): improved stability
Sequence: VLYGPDTPIV (Anchor-modified analog) [589V10]
